Measured values: US11970523B2 (priority 2018, dated 2024)

Protein sequences, listed by entry. Tags and fused reporters are not part of them.
UniProt P27487, whole entry, species assumed: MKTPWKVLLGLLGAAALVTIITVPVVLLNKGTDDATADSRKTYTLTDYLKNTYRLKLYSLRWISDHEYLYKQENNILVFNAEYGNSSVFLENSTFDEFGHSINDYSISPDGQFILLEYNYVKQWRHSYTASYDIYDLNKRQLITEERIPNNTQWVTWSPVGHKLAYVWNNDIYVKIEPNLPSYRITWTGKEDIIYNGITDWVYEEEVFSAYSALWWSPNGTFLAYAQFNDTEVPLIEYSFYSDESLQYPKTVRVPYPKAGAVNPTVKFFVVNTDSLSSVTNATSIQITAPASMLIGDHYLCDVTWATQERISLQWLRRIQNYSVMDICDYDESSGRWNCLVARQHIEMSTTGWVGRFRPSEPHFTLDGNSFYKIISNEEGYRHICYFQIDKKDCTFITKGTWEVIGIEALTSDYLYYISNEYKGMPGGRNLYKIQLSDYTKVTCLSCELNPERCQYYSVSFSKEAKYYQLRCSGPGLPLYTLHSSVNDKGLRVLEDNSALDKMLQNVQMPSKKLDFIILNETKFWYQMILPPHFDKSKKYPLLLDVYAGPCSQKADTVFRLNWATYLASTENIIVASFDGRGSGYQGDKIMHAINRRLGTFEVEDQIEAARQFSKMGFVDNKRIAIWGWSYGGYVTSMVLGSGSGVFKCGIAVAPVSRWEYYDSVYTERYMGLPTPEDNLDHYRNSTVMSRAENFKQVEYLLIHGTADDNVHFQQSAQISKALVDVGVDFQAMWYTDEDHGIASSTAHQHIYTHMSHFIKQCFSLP

How the values were obtained:
[1] = target: DPP-4 enzyme (Homo sapiens, UniProt P27487); test: Stability test on DPP-4 enzyme; assay type: in vitro ADME; conditions: Table 10; 5 nmol peptide, 5 mU DPP-4, Tris-HCL 50 mM, pH 7.4, 37° C., HPLC peak area 8 h / 0 h
Method: 5 nmol of OXM hybrid peptides and 5 mU of DPP-4 enzyme were put into 200 μL of a Tris-HCL buffer solution with a concentration of 50 mM. Under the condition of pH 7.4, incubation was performed for 8 h at 37° C. After the reaction was completed, 10 L of a 20% acetonitrile/water solution was added for terminating the reaction. Incubation solutions at 0 h and 8 h were taken, treated and subjected to HPLC analysis under the following analysis conditions: C18 reversed-phase column (150 mm×4.6 mm, 5 μm); mobile phase A: 0.1% TFA/water (V/V), and mobile phase B: 0.1% TFA/acetonitrile (V/V); mobile phase gradient: mobile phase B 10%-45%, 22 min; flow rate: 1 mL/min; column temperature: 40° C.; and detection wavelength: 214 nm. The stability condition of OXM analogs on the DPP-4 was expressed by a ratio (% intact peptide after 8 h) of the HPLC peak area of the incubation solution at 8 h to the HPLC peak area of the incubation solution at 0 h.

[2] = endogenic GLP-1; cited from earlier work

Row | Substance | % intact peptide after 8 h [1] | half-life period [2]
1 | Oxyntomodulin [OXM, reference compound] | 39.1 ± 5.9% | 
2 | glucagon-like peptide-1 [GLP-1] | 4.3 ± 6.2% | 2 to 3 min
